These are literature values, as cited in patent US20210355435A1, “CULTURE MEDIUM COMPRISING KETO ACIDS” (Evonik Operations GmbH, priority 2018, published 2021).

The test system of this data set is CHO and Hybridoma cell lines. To be noted: AKG added to commercially available media; cited from earlier work.

As to `O=C(O)CCC(=O)C(=O)O` [AKG, alpha-ketoglutaric acid], the “increase of Integrated Viable Cell Density (IVCD)” value is “more than 50%” and the “increase of maximum Viable Cell Density (VCD)” value is reported as “more than 30%”.
